Test results published in article PMC5489263 (Science Advances, 2017).
pEC50: −log10 of the molar value.

By UniProt entry, the sequences of proteins in these tests, tags left out.
UniProt A0A1D8PTB4, entry or part of it: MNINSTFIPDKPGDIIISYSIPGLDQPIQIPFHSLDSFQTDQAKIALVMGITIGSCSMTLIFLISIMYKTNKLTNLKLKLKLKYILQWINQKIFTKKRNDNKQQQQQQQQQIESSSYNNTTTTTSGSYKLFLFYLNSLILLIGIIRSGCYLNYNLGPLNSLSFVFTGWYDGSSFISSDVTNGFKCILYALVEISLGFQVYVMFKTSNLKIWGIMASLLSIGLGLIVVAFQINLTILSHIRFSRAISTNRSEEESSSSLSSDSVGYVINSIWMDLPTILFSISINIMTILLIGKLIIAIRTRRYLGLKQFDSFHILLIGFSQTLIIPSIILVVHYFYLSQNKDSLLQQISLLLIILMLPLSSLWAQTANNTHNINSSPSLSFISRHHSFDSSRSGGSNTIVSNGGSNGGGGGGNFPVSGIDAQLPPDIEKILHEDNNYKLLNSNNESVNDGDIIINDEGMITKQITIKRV

Target: C. albicans mating receptor (Ca.Ste2) (Candida albicans, UniProt A0A1D8PTB4)
Assay: cell-based

CC(C)C[C@H](NC(=O)[C@H](CCCNC(=N)N)NC(=O)[C@H](Cc1ccccc1)NC(=O)CN)C(=O)N[C@H](C(=O)N[C@@H](CC(N)=O)C(=O)N[C@@H](Cc1ccccc1)C(=O)NCC(=O)N[C@@H](Cc1ccc(O)cc1)C(=O)N[C@@H](Cc1ccccc1)C(=O)N[C@@H](CCC(=O)O)C(=O)N1CCC[C@H]1C(=O)NCC(=O)O)[C@@H](C)O [C. albicans mating peptide]
pEC50: 8.38
